From PMC9663578, “A fluorogenic probe for predicting treatment response in non-small cell lung cancer with EGFR-activating mutations” (Nature Communications, 2022)
Values joined by “and” are separate entries in the source; they are usually repeats but may differ in a detail not shown here. Identical values can stand only once.

Legend:
HCC827 cells = assay: Confocal imaging of HX103 uptake in living cells; type: cell-based, human; settings: pretreated with gefitinib 50 µM
[1] = test system: NSCLC patients with EGFR-activating mutations; assay: Observational clinical study, response to EGFR-TKI therapy (CT imaging, RECIST); settings: first-line treatment, one patient per line (Patients 1-15)
[2] = test system: tumor tissues from NSCLC patients; assay: HX103-based multicolor FACS, surgical tumor tissues; type: cell-based, human; settings: representative dot plots #12-T, #6-T, #15-T; not background-corrected
A431 cells = assay: Confocal imaging of HX103 uptake in living cells; type: cell-based, human; settings: pretreated with gefitinib 50 µM

`COc1cc2ncnc(Nc3ccc(F)c(Cl)c3)c2cc1OCCCN1CCOCC1` [Gefitinib] was tested, and the “lower uptake of HX103 than untreated cells” value (HCC827 cells) was ~ 50%, the “Response in lesion size (%)” value [1] was -72.8% and -46.6% and -60.0% and -32.5% and the Therapy response [1] was “PR (defined as a ≥30% decrease in tumor size from the baseline, partial response (PR))”. The “Q1, EGFR(+)HX103(–) cells in dot plot” value [2] was 84.0% and the “lower uptake of HX103 than untreated cells” value (A431 cells) was ~ 50%.
